# Assay results taken from PubChem BioAssay AID2073 (Sanford-Burnham Center for Chemical Genomics, 2009).
# Sequences of proteins named here, by UniProt entry; tags and fusion partners are left off.
# UniProt Q00975, whole entry: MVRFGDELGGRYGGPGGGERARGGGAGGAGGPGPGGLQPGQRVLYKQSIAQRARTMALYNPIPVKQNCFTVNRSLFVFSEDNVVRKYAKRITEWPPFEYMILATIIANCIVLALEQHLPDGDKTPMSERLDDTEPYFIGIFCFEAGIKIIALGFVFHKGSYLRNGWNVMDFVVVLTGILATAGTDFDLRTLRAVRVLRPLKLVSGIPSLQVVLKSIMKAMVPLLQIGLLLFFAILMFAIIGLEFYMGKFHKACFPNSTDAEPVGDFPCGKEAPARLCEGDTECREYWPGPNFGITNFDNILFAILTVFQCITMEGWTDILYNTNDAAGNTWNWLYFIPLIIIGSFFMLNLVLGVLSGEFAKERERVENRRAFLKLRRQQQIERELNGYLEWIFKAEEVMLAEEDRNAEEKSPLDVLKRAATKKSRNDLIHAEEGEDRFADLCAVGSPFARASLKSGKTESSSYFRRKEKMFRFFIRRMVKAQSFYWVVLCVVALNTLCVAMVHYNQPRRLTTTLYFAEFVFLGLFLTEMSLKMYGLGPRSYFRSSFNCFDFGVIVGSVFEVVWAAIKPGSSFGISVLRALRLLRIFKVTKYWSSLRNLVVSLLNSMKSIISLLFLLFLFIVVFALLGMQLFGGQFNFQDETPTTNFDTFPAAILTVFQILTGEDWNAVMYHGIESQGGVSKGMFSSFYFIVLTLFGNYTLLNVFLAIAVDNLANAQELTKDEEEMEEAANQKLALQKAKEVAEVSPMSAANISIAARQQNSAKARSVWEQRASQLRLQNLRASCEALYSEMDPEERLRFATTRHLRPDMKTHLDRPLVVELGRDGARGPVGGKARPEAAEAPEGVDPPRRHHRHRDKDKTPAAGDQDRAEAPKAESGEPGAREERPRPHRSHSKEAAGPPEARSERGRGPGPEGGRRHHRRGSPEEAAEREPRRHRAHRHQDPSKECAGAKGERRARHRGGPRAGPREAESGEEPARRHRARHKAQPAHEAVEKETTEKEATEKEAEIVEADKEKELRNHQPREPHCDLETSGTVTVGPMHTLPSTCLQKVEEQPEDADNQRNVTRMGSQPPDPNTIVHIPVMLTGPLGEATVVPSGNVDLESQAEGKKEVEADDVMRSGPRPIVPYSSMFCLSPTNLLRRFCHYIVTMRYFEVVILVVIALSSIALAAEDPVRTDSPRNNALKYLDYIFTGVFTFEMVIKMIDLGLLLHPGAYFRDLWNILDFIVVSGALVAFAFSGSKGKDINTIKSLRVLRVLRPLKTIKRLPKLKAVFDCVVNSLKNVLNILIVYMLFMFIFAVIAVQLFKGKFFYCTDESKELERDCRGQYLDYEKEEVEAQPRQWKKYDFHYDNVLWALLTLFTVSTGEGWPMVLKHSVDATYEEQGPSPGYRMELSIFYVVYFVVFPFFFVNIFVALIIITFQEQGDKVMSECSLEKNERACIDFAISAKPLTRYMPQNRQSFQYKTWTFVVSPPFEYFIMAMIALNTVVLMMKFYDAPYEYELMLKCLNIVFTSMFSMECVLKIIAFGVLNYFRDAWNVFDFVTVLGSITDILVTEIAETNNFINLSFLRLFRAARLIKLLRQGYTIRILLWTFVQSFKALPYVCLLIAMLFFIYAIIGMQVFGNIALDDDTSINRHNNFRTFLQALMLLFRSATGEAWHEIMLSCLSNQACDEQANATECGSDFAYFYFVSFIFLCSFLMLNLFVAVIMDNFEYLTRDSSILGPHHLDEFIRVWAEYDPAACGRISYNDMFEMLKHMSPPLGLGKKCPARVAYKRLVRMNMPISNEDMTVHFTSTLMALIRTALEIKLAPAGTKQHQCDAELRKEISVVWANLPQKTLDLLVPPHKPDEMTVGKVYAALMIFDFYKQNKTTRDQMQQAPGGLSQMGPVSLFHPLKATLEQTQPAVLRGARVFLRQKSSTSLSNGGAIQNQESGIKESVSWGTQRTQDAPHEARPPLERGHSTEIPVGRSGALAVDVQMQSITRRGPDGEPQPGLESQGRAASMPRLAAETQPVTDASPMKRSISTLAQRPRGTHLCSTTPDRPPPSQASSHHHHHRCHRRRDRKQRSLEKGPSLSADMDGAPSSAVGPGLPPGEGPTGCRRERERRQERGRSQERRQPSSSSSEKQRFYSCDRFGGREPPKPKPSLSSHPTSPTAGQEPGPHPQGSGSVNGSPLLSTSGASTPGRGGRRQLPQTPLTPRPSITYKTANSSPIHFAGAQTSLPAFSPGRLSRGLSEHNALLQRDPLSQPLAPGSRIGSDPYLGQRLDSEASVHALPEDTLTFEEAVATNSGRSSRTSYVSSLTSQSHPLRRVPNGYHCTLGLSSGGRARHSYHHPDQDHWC
# The entries are a selection whose mix differs from that of the whole data set. Measured potencies and affinities stand elsewhere. Some salts and complexes are drawn in separate pieces, as the source files them; their charges need not balance. The source made the active and inactive calls. Cut-off read from the data, not from the text of the source: active = inhibition mostly above about 51% (no sharp cut-off); inconclusive = no clear call, values can overlap the other calls; inactive = mostly below about 53%.
# Biological target: Voltage-dependent N-type calcium channel subunit alpha-1B (Homo sapiens) (UniProt Q00975)
# Experiment: inhibitors of Mint1-CaV2.2 protein interaction, biochemical, HTRF (AID 2073)
# Settings: at 20 µM, hits give high values
row,SMILES,inhibition
1,CCc1ccc(OP(C)(=O)O)cc1,inactive: -0.4%
2,CP(=O)(Nc1ccccn1)Oc1ccccc1 (stereo not given),inactive: -4.1%
3,COc1ccccc1OP(C)(=O)Nc1ccc(C)cc1C (stereo not given),inactive: -6%
4,O=[N+]([O-])c1cc([N+](=O)[O-])c(Nc2ccccn2)c([N+](=O)[O-])c1,inactive: 5.9%
5,Cc1c(NP(C)(=O)Oc2ccc(C(C)C)cc2)c(=O)n(-c2ccccc2)n1C (stereo not given),inactive: 12.5%
6,CN(C)CCOC(=O)C(O)(c1ccccc1)C1CCCC1 (stereo not given),inactive: 4.8%
7,COc1ccc(OP(C)(=O)Nc2ccccn2)cc1 (stereo not given),inactive: 2%
8,COc1ccccc1OP(C)(=O)Nc1ccc(Br)cc1 (stereo not given),inactive: -10.4%
9,CP(=O)(OCCOc1ccccc1)OCCOc1ccccc1,inactive: 4.1%
10,CP(=O)(Nc1ccc(Cl)cc1Cl)Oc1ccccc1 (stereo not given),inactive: -7.6%
11,Cc1nc2ccc3ccccc3c2o1.O=[N+]([O-])c1cc([N+](=O)[O-])c(O)c([N+](=O)[O-])c1,inactive: -11.4%
12,COc1ccc(OP(C)(=O)Nc2ccccc2Br)cc1 (stereo not given),inactive: -3.6%
13,COc1ccccc1OP(C)(=O)Nc1ccc(C)c(C)c1 (stereo not given),inactive: -4%
14,Cc1cc(C)cc(OP(C)(=O)Nc2cccc(C(F)(F)F)c2)c1 (stereo not given),inactive: 11.9%
15,CP(=O)(OC12CC3CC(CC(C3)C1)C2)OC12CC3CC(CC(C3)C1)C2,inactive: -10.9%
16,CCOC(=O)c1ccc(NP(C)(=O)Oc2ccc(Cl)cc2)cc1 (stereo not given),inactive: 2.1%
17,CN(C)C(=O)c1c([N+](=O)[O-])cc([N+](=O)[O-])cc1[N+](=O)[O-],inactive: -10.9%
18,CP(=O)(Nc1ccc(Cl)cc1)Oc1ccc(F)cc1 (stereo not given),inactive: -0.7%
19,CC(C)(C)c1ccc(OP(C)(=O)O)cc1,inactive: 1.9%
20,COc1ccccc1OP(C)(=O)Nc1ccccc1Br (stereo not given),inactive: -0.5%
21,CP(=O)(Oc1ccccc1)N1CCOC1=O (stereo not given),inactive: 1%
22,CCc1ccc(OP(C)(=O)Nc2cccnc2)cc1 (stereo not given),inactive: -0.8%

row,SMILES,inhibition
1,COc1ccccc1OP(C)(=O)Nc1c(C)n(C)n(-c2ccccc2)c1=O (stereo not given),inactive: -5.5%
2,O=C(OCCCN1CCCC1)C(O)(c1ccccc1)C1CCCCC1 (stereo not given),inactive: 6.3%
3,CCN(CC)CC(O)COC(=O)C(O)(c1ccccc1)C1CCCCC1 (stereo not given),inactive: -1.5%
4,COc1ccc(OP(C)(=O)Nc2ccc(Br)cc2)cc1 (stereo not given),inactive: -1.1%
5,Cc1ccccc1NP(C)(=O)Nc1ccccc1C,inactive: 1.7%
6,CP(=O)(Nc1ccc2c(c1)OCCO2)Oc1ccccc1 (stereo not given),inactive: 7.5%
7,CCOP(C)(=S)SCC(=O)NC(C)(CC)C(=O)O (stereo not given),inactive: -1.8%
8,CP(=O)(Nc1ccc(SC(F)(F)F)cc1)Oc1ccc(F)cc1 (stereo not given),inactive: -10.4%
9,O=[N+]([O-])c1cc([N+](=O)[O-])c(NCC2CCS(=O)(=O)C2)c([N+](=O)[O-])c1 (stereo not given),inactive: 6.6%
10,Cc1cc(-c2cccc3ccccc23)c(C)cn1.O=[N+]([O-])c1cc([N+](=O)[O-])c(O)c([N+](=O)[O-])c1,inactive: -0.6%
11,O=[N+]([O-])c1ccc(OP2(=O)COCCO2)cc1 (stereo not given),inactive: 0.1%
12,COc1ccc(NP(C)(=O)Oc2ccccc2OC)cc1 (stereo not given),inactive: -11.8%
13,CN(C)CCOC(=O)C(O)(c1ccccc1)C1CCCCC1 (stereo not given),inactive: 3.9%
14,COc1ccc(OP(C)(=O)Nc2cccc(Br)c2)cc1 (stereo not given),inactive: -2%
15,O=[N+]([O-])c1cc([N+](=O)[O-])c(OC2CCCCC2O)c([N+](=O)[O-])c1 (stereo not given),inactive: -4%
16,CCCCCOc1ccc(NP(C)(=O)Oc2ccc(Cl)cc2Cl)cc1 (stereo not given),inactive: 1.2%
17,CP(=O)(Nc1ccccc1)Oc1ccc(F)cc1 (stereo not given),inactive: 0.9%
18,CCN(CC)CCCOC(=O)C(O)(c1ccccc1)C1CCCCC1 (stereo not given),inactive: -2%
19,COc1ccc(OP(C)(=O)Nc2ccc(SC(F)(F)F)cc2)cc1 (stereo not given),inactive: -2.5%
20,CCOC(=O)c1ccc(NP(C)(=O)Oc2ccc(F)cc2)cc1 (stereo not given),inactive: 0.7%
21,COc1ccc2c(c1O)-c1c(O)c(OC)cc3c1[C@H](C2)[N+](C)(C)CC3.O=[N+]([O-])c1cc([N+](=O)[O-])c([O-])c([N+](=O)[O-])c1[O-],inactive: 8.8%
22,O=C(OCCN1CCN(CCOCc2ccccc2)CC1)C(O)(c1ccccc1)c1ccccc1,inactive: -10.6%

row,SMILES,inhibition
1,O=C(OC1CN2CCC1CC2)c1ccc([N+](=O)[O-])cc1 (stereo not given),inactive: -10.1%
2,CC(C)c1ccc(OP(C)(=O)Nc2ccc(SC(F)(F)F)cc2)cc1 (stereo not given),inactive: 3.8%
3,CP(=O)(Nc1ccccc1F)Oc1ccccc1 (stereo not given),inactive: 5.4%
4,CP(=O)(Nc1cccc(Br)c1)Oc1ccccc1 (stereo not given),inactive: -21.2%
5,Cc1cc(C)cc(OP(C)(=O)Nc2ccccn2)c1 (stereo not given),inactive: -6.1%
6,Cc1ccc(C)c(NP(C)(=O)Oc2ccccc2)c1 (stereo not given),inactive: 4.7%
7,Cc1cc(C)cc(OP(C)(=O)Nc2ccc(C)cc2C)c1 (stereo not given),inactive: -3.5%
8,CCOC(=O)c1ccc(NP(C)(=O)Oc2cc(C)cc(C)c2)cc1 (stereo not given),inactive: 1.1%
9,COc1ccccc1OP(C)(=O)Nc1cccc(Br)c1 (stereo not given),inactive: -5.8%
10,CC1=NCCc2c1[nH]c1ccccc21.O=[N+]([O-])c1cc([N+](=O)[O-])c(O)c([N+](=O)[O-])c1,inactive: 23.2%
11,O=C(O)c1cccc(Nc2c([N+](=O)[O-])cc([N+](=O)[O-])cc2[N+](=O)[O-])c1,inactive: -10%
12,CP(=O)(Nc1ccc(SC(F)(F)F)cc1)Oc1ccccc1 (stereo not given),inactive: 0.7%
13,CCCOc1ccc(NP(C)(=O)Oc2ccc(Cl)cc2)cc1 (stereo not given),inactive: -6%
14,COc1ccccc1OP(C)(=O)Nc1c(C)cccc1C (stereo not given),inactive: 16.8%
15,CN1CCCCC1COC(=O)C1(O)c2ccccc2CCc2ccccc21 (stereo not given),inactive: -5.4%
16,O=[N+]([O-])c1cc([N+](=O)[O-])c(Nc2nnnn2CCO)c([N+](=O)[O-])c1,inactive: 6%
17,CCOC(=O)C(CC)C1=NC(C)(C)Cc2ccccc21.O=[N+]([O-])c1cc([N+](=O)[O-])c(O)c([N+](=O)[O-])c1 (stereo not given),inactive: -1.3%
18,Cc1nc2ccc3ccccc3c2s1.O=[N+]([O-])c1cc([N+](=O)[O-])c(O)c([N+](=O)[O-])c1,inactive: -3.7%
19,O=[N+]([O-])c1cc([N+](=O)[O-])c(-n2nnc3ccccc32)c([N+](=O)[O-])c1,inactive: 0.2%
20,CP(=O)(Nc1ccccn1)Oc1ccc(Cl)cc1 (stereo not given),inactive: 0.9%
21,CCOP(C)(=S)SCC(=O)NC(C)C(=O)O (stereo not given),inactive: 7.3%
22,CCOC(=O)c1ccc(NP(C)(=O)Oc2ccc(OC)cc2)cc1 (stereo not given),inactive: -6.5%

row,SMILES,inhibition
1,CCc1ccc(OP(C)(=O)N2CCN(c3ccc([N+](=O)[O-])cc3)CC2)cc1 (stereo not given),inactive: -5.3%
2,CP(=O)(NC(=O)Nc1ccccc1)Oc1ccccc1 (stereo not given),inactive: -1.3%
3,Cc1cc(C)cc(OP(C)(=O)Nc2ccc(SC(F)(F)F)cc2)c1 (stereo not given),inactive: -2.9%
4,Cc1cccc(C)c1OP(C)(=O)Nc1ccc(SC(F)(F)F)cc1 (stereo not given),inactive: 3.5%
5,CP(=O)(Nc1ccc(SC(F)(F)F)cc1)Oc1ccc(Cl)cc1 (stereo not given),inactive: -8.1%
6,CP(=O)(Oc1ccccc1)OC(c1ccccc1)C(F)(F)F (stereo not given),inactive: -18.1%
7,COc1ccccc1OP(C)(=O)Nc1ccccc1 (stereo not given),inactive: 12.4%
8,CP(=O)(Nc1ccccc1Br)Oc1ccccc1 (stereo not given),inactive: 1%
9,CP(=S)(Nn1cnnc1)Oc1ccccc1 (stereo not given),inactive: -0.9%
10,COc1ccccc1OP(C)(=O)Nc1cc(Cl)ccc1C (stereo not given),inactive: -4.7%
11,COc1ccc(OP(C)(=O)Nc2cccc(F)c2)cc1 (stereo not given),inactive: 8.4%
12,Cc1cc(C)cc(OP(C)(N)=O)c1 (stereo not given),inactive: -7%
13,CCOC(=O)c1ccc(NP(C)(=O)Oc2ccccc2)cc1 (stereo not given),inactive: 4.5%
14,COc1ccccc1OP(C)(=O)Nc1ccc(C)cc1 (stereo not given),inactive: -0.9%
15,Cc1ccc(NP(C)(=O)Oc2ccccc2)c(C)c1 (stereo not given),inactive: -0.6%
16,CC(C)(C)c1ccc(OP(C)(=O)Nc2ccc(SC(F)(F)F)cc2)cc1 (stereo not given),inactive: 41.9%
17,Cc1cccc(C)c1OP(C)(N)=O (stereo not given),inactive: -1.6%
18,O=[N+]([O-])c1ccc2c(c1)C=Nc1ccccc1O2,inactive: 15.7%
19,CCN(CC)CCCOC(=O)C(O)(c1ccccc1)c1ccccc1,inactive: -2.3%
